One substance from patent US20020015967A1, “FUNCTIONAL EXPRESSION OF ADENOSINE RECEPTORS IN YEAST” (priority 1998, published 2002) can be followed below.

Sequences of proteins named here, by UniProt entry; tags and fusion partners are left off.
UniProt P0DMS8, whole entry: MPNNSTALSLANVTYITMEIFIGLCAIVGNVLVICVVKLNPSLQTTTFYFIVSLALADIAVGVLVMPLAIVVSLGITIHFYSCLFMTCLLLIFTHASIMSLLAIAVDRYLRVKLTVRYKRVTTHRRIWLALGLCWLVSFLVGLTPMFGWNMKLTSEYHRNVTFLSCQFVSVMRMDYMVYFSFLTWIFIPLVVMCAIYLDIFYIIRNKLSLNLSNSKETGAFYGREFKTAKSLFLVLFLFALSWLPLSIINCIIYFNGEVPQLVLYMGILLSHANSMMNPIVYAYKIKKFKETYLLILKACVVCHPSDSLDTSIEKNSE

The target in the assay is T1, human A3 receptor (Homo sapiens, UniProt P0DMS8).
T1 construct: expressed in transfected cells
Description: Radioligand displacement binding, [125I]AB-MECA, mammalian membranes. The note with it: [125I]AB-MECA 0.75 nM; 10 ug mammalian membranes; 60 minutes room temperature; read-out: IC50 hA3R.

Consider “(—)—N6-(2-phenylisopropyl)-adenosine [PIA]”, for which the 50% inhibitory concentration (IC50) amounted to 23.6 nM.
